Results on 1 compound are retold here after patent EP0567613B1, “COMPOSITIONS FOR THERAPY AND PREVENTION OF CANCER” (The Government of the United States of America, as …, priority 1991, dated 1993).

This experiment concerns premalignant 10T1/2 cells. The experiment in a line: cells. The following applies: Mus musculus, Adipocyte, 168 h, read-out: concentration at which increased lipid accumulation was evident. How it is done:
C. Quantitation of adipocytosis. Lipids stained with Oil-Red O were extracted with butanol, and the optical density at 510 nm determined.
Lower: Quantitation of adipocytosis. Cells were fixed with 37% formaldehyde and stained with Oil-Red O. The stained intracellular lipid was extracted with butanol, and the optical density was determined using a Titertek Multiskan MC, manufactured by Flow Laboratories, at a wavelength 510 nm.

For `O=C([O-])Cc1ccccc1.[Na+]` [NaPA, sodium phenylacetate], the minimal effective concentration was found to be 24 µg/mL.
